{
  "source": "ChEMBL document CHEMBL3137440",
  "about": "“DNDi T. cruzi fenarimol series dataset from which preclinical candidate EPL-BS0967 was identified (see also related datasets: CHEMBL3137386 and CHEMBL2448688)”",
  "tested_on": "Trypanosoma cruzi",
  "assay": "DNDI: Chagas in Vitro",
  "format": "functional, organism-based",
  "conditions": "Tulahuen C4 (LacZ)",
  "data": [
    {"smiles": "FC(F)(F)c1ccc(N(c2cccnc2)C2CCN(c3ccc(C(F)(F)F)nc3)CC2)cc1", "values": [
      {"measurement": "IC50", "value": 0.015, "unit": "µM"}
    ]}
  ]
}
